Measurements published in publication PMC3083246 (Journal of medicinal chemistry, 2011).

The chains behind the UniProt entries cited, without tags or fusion partners. Where a name states a change or a piece, a line headed by the entry shows the natural chain unless it says otherwise.
UniProt O26232: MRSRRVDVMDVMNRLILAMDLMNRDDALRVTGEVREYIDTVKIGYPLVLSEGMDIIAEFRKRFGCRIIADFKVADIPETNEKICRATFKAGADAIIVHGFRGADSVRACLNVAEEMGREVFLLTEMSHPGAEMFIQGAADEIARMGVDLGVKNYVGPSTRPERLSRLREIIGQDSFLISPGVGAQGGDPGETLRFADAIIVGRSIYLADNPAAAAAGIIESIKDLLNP

Target: Mt ODCase (Methanothermobacter thermautotrophicus, UniProt O26232)
Experiment: Time-dependent inactivation of Mt ODCase
Type: biochemical, Methanobacterium thermoautotrophicum
Details: read-out: kinact, Mt ODCase

Compound	kinact [s⁻¹]
[N-]=[N+]=Nc1cn([C@@H]2O[C@H](CP(=O)(O)O)[C@@H](O)[C@H]2O)c(=O)[nH]c1=O [Compound 14, 6-azido-UMP, reference compound]	0.17
[N-]=[N+]=Nc1cc(=O)[nH]c(=O)n1[C@@H]1O[C@H](CP(=O)(O)O)[C@@H](O)[C@H]1O [Compound 34, 6-Azido-2′-deoxy-2′-fluoro-β-D-uridine-5′-O-monophosphate]	0.00111
